{"sequences": {"note": "By UniProt entry, the sequences of proteins in these tests, tags left out.", "UniProt Q7QCC7, whole entry": "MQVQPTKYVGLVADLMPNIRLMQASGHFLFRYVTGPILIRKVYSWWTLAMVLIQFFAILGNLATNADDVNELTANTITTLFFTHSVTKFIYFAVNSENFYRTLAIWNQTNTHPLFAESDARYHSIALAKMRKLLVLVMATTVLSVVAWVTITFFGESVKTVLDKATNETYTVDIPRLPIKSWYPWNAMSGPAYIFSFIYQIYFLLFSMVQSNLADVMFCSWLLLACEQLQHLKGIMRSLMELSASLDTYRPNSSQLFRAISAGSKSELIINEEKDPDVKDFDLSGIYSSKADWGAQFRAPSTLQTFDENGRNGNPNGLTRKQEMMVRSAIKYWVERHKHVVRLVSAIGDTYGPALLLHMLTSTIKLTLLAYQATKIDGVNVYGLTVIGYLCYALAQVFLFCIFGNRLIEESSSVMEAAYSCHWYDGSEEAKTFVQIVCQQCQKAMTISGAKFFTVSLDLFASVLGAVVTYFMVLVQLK"}, "source": "paper PMC6411751", "about": "“Use of machine learning to identify novel, behaviorally active antagonists of the insect odorant receptor co-receptor (Orco) subunit” (Scientific Reports, 2019)", "biological_target": "Agam\\Orco (Anopheles gambiae, UniProt Q7QCC7)", "settings": "Table S1; training actives; Agam\\Orco activated by 30 µM OLC12; mean ± SEM (n = 3-8)", "data": [{"compound": "CCc1ccccc1NC(=O)/C=C/c1cccs1", "values": [{"measurement": "IC50", "result": 143, "unit": "µM"}]}]}
